Biological target: plasma DPP-IV (Rattus norvegicus, UniProt P14740)
Experiment: in vivo
Details: read-out: DPP-IV inhibitory activity retained

Protein sequences, listed by entry. Tags and fused reporters are not part of them. Residues count along the entry.
UniProt P14740, 37-767 limits assumed: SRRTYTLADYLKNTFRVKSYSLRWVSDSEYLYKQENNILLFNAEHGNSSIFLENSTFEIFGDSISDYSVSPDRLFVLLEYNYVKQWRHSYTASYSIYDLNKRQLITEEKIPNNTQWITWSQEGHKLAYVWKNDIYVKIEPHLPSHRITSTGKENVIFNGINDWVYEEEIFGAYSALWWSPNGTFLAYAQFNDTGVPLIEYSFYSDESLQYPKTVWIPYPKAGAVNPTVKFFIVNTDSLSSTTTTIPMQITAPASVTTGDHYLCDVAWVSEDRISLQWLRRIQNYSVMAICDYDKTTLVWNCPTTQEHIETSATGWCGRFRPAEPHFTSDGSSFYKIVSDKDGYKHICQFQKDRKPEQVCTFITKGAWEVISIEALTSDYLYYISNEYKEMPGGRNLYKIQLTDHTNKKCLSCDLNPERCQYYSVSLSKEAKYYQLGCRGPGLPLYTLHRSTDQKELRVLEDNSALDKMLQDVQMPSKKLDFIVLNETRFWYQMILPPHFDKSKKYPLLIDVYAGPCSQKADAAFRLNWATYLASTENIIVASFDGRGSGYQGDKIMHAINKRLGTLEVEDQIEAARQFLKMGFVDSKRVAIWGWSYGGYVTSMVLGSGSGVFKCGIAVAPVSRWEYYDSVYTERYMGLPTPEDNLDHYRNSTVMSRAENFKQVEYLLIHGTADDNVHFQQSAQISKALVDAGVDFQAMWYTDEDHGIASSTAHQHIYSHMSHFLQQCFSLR

- inhibition at 10 mg/kg: ~50%
Structure (SMILES): N[C@@H](CC(=O)N1CCn2c(nnc2C(F)(F)F)C1)Cc1cc(F)c(F)cc1F [MK-0431, reference compound]
